Protein sequences, listed by entry. Tags and fused reporters are not part of them.
UniProt P28845, whole entry: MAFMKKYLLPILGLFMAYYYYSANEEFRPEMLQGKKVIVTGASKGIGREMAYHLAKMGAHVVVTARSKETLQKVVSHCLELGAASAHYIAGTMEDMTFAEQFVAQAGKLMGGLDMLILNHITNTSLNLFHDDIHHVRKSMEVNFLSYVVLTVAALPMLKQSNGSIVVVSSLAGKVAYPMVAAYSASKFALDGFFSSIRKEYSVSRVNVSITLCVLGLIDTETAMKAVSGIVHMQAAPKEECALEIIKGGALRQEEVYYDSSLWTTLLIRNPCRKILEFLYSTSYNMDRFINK

According to patent publication US9453014B2, “Cyclic amide derivatives as inhibitors of 11-β-hydroxysteroid dehydrogenase and uses thereof” (CONNEXIOS LIFE SCIENCES PVT. LTD., priority 2011, dated 2016):

Biological target: human full length HSD11 β 1 (Homo sapiens, UniProt P28845)
Experiment: In Vitro HSD11β1 Inhibition Assay
Conditions: read-out: 11βHSD1 (IC50); CHO cells transiently expressing human HSD11β1; 200 nM cortisone+500 uM NADPH overnight; cortisone to cortisol by LC/MS-MS

IC50	Structure (SMILES)
100 to 150 nM	O=C(O)C1CCN(C(=O)CC(c2ccccc2)c2c[nH]c3cccc(F)c23)C2CCCCC12 (centres unmarked)
100 to 150 nM	O=C(O)C1CCN(C(=O)CC(c2ccccc2)c2c[nH]c3cc(F)ccc23)C2CCCCC12 (centres unmarked)
